In ChEMBL document CHEMBL5634075, “An electrophilic fragment screening for the development of small molecules targeting caspase-2” (Eur J Med Chem, 2023):

Assays:
Homo sapiens = species: Homo sapiens; experiment: Selectivity ratio of IC50 for recombinant caspase-3 (unknown origin) to recombinant caspase-2 (unknown origin)
HepG2 = experiment: Cytotoxicity against human HepG2 cells assessed as reduction in cell viability measured after 22 hrs by cell-titer glo assay; type: functional, cell-based
Method in brief: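 HepG2 cells at 250 cells/well, 1536-well format, settled 4 h at 37 °C and 5% CO2. Compound added acoustically (50 nL), 22 h at 37 °C. CellTiter-Glo reagent added, 15 min at room temperature, then luminescence read.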

Caspase-2 (Homo sapiens) = target: T1, Caspase-2 (Homo sapiens) (UniProt P42575); experiment: Irreversible inhibition of recombinant caspase-2 (unknown origin) assessed as ratio of Kinact/Ki using Z-VDVAD-AFC as substrate measured after 40 mins by fluorescence assay
T1 sequence (whole entry): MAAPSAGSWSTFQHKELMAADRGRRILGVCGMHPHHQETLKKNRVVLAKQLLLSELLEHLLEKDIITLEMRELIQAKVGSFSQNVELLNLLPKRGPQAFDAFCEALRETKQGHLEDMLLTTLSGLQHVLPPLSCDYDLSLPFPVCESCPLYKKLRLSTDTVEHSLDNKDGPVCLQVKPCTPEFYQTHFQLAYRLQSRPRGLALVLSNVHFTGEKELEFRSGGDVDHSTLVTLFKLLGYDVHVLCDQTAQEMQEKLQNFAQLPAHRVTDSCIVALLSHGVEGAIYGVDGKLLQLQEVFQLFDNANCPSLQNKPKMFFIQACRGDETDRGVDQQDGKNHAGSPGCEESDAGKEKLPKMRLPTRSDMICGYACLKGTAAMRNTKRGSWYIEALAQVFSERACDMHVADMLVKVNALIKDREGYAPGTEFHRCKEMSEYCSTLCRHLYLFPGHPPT
Method in brief: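 Caspase-2 kinetic fluorometric assay with Z-VDVAD-AFC. kOBS values obtained from progress curves at four or more inhibitor concentrations. kinact/Ki then derived by two-step irreversible secondary regression (Copeland).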

Caspase-3 = target: T2, Caspase-3 (Homo sapiens, UniProt P42574); experiment: Inhibition of recombinant caspase-3 (unknown origin) using Ac-DEVD-AFC as substrate measured after 40 mins by fluorescence assay
T2 sequence (P42574 whole entry): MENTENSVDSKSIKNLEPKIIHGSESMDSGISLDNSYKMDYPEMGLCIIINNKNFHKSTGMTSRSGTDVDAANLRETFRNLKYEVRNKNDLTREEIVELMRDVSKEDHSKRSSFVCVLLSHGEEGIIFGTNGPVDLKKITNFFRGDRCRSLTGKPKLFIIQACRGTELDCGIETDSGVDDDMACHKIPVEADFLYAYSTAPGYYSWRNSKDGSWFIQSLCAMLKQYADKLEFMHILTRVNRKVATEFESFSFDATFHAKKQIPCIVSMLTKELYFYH

| Structure (SMILES) | Ratio IC50 (Homo sapiens) | Activity (HepG2) | Ratio (Caspase-2 (Homo sapiens)) | IC50 (Caspase-3) [nM] |
| --- | --- | --- | --- | --- |
| Cc1nc(-c2ccc3c(c2)CCN3C(=O)CCl)cs1 | 19 | Dose-Dependent Effect | 7.97 10^4/M/s |  |
| CC(=O)N[C@@H](CC(=O)O)C(=O)N[C@@H](CCC(=O)O)C(=O)N[C@H](C(=O)N[C@H](C=O)CC(=O)O)C(C)C |  |  |  | 1.38 |
